The target of assay [1] is human RORγ receptor (GST-tagged ROR gamma ligand binding domain) (Homo sapiens (Human), UniProt P51449). The assay is described as follows: TR-FRET assay for ROR gamma (Lantha Screen co-activator peptide recruitment). The class given is biochemical. As to conditions: read-out: IC50 value for inhibiting human RORγ receptor activity, 10 nM GST-tagged ROR gamma LBD. Background: TR-FRET usually uses a lanthanide donor and a delayed reading to cut background.

Chains of the proteins cited; added tags and fusions are not shown. Residues count along the entry.
UniProt P51449, 269-508 limits assumed: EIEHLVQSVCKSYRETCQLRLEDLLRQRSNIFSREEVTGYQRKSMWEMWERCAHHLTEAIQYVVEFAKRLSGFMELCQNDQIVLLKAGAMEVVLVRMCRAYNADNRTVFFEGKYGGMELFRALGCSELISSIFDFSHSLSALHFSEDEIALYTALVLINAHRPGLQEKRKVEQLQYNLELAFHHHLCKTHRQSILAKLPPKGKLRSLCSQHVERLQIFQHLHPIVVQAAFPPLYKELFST

The subject of assay [2] is cigarette smoke (CS) induced pulmonary inflammation model in male C57BL6/J mice. Briefly: Cigarette smoke (CS) induced pulmonary inflammation model, 7 days exposure, BAL cell count. Particulars: i.n., od, 7 days CS exposure.
Where [3] appears, read: BAL 20 hours after last smoke exposure.

Turning to `O=C(O)c1ccc(-n2nc(C(=O)c3c(Cl)cccc3C3CC3)c3cccnc32)cc1`, the 50% inhibitory concentration (IC50) in assay [1] came out at 1.98 nM.

Take `CCn1c(C(C)(C)Oc2ccc(Cl)c(F)c2)nc2cc(NC(=O)Cc3ccc(S(=O)(=O)CC)cc3)ccc21`: the half-maximal inhibitory concentration (IC50) in assay [1] stood at 22.4 nM.

With `O=C(O)c1ccc(-n2cc(C(=O)c3c(Cl)cccc3Cl)c3ccccc32)c(F)c1`, the “inhibition of pulmonary inflammation induced by cigarette smoke” value in assay [2] is on record as “significant inhibition”. In assay [2] (setting [3]), the “CS mediated increase in macrophages in BALf” value is listed as “significantly prevented”, the “CS mediated increase in neutrophils in BALf” value is listed as “significantly prevented” and the “CS mediated increase in total leukocyte count (TLC) in BALf” value is on record as “significantly prevented”.

For orientation: IC50 means the concentration that inhibits the measured activity by half.

The values above are taken from patent publication US9855229B2, “Treatment of respiratory disorders using ROR-gamma inhibitors” (Glenmark Pharmaceuticals S.A., priority 2015, dated 2018).
